Experimental data from patent US20240139211A1, “METHODS AND COMPOSITIONS FOR TREATING AMYOTROPHIC LATERAL SCLEROSIS” (Amylyx Pharmaceuticals, Inc., priority 2022, published 2024).

Biological target: T1, MATE1 (Homo sapiens, UniProt Q96FL8)
T1 sequence (Q96FL8 1-570): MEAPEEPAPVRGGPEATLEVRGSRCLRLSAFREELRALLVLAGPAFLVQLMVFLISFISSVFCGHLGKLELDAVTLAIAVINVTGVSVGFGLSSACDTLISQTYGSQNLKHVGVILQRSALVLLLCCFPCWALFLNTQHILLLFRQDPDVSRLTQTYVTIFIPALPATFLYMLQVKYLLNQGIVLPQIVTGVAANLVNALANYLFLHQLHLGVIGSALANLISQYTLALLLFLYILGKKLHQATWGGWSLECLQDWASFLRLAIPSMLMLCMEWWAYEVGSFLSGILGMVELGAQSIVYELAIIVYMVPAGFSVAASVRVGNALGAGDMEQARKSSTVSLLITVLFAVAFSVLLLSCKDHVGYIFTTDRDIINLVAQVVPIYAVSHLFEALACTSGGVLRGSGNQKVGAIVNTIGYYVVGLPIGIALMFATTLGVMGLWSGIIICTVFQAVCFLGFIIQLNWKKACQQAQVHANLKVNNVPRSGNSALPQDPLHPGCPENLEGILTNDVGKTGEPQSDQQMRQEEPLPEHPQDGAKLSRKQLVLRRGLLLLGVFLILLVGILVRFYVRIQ
Assay: Inhibitor of MATE1, probe substrate uptake
Settings: after treatment with phenylacetic acid

O=C(O)Cc1ccccc1 [Phenylacetic acid, phenylacetic acid]
Accumulation of tetraethyl ammonium, % of initial uptake (MATE1): 2440%
